The values that follow come from PubChem BioAssay AID651614 (The Scripps Research Institute Molecular Screening Center, 2012).

This is a selection; strong and weak results do not stand in their true shares. The source made the active and inactive calls. Rule as the data show it: active = inhibition above about 44%; inactive = the rest.

The assay concerns the target Steroidogenic factor 1 (Homo sapiens) (UniProt Q13285). The experiment in a line: SF1 (NR5A1) inverse agonists, counter-screen for LRH-1 inverse agonist project, cell-based, luminescence, high throughput (AID 651614).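 Also: cells cotransfected with StAR promoter reporter and SF1 expression vector; 0% = vehicle on cells with receptor and 100% = vehicle on cells lacking receptor.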 The following applies: cell-based SF1 luciferase reporter, at 3.6 µM, active compounds read high.
With `O=[N+]([O-])c1cc([N+](=O)[O-])c(-c2cnn(-c3ccccc3)c2)c([N+](=O)[O-])c1`, the inhibition (in general, how much of the control response was suppressed) is active: 59.6%.
